# From article PMC12440207, “Positive allosteric modulation of emodepside sensitive Brugia malayi SLO-1F and Onchocerca volvulus SLO-1A potassium channels by GoSlo-SR-5-69” (PLOS Pathogens, 2025)
# Sequences of proteins named here, by UniProt entry; tags and fusion partners are left off.
# UniProt A0A0J9Y9H3, entry or part of it: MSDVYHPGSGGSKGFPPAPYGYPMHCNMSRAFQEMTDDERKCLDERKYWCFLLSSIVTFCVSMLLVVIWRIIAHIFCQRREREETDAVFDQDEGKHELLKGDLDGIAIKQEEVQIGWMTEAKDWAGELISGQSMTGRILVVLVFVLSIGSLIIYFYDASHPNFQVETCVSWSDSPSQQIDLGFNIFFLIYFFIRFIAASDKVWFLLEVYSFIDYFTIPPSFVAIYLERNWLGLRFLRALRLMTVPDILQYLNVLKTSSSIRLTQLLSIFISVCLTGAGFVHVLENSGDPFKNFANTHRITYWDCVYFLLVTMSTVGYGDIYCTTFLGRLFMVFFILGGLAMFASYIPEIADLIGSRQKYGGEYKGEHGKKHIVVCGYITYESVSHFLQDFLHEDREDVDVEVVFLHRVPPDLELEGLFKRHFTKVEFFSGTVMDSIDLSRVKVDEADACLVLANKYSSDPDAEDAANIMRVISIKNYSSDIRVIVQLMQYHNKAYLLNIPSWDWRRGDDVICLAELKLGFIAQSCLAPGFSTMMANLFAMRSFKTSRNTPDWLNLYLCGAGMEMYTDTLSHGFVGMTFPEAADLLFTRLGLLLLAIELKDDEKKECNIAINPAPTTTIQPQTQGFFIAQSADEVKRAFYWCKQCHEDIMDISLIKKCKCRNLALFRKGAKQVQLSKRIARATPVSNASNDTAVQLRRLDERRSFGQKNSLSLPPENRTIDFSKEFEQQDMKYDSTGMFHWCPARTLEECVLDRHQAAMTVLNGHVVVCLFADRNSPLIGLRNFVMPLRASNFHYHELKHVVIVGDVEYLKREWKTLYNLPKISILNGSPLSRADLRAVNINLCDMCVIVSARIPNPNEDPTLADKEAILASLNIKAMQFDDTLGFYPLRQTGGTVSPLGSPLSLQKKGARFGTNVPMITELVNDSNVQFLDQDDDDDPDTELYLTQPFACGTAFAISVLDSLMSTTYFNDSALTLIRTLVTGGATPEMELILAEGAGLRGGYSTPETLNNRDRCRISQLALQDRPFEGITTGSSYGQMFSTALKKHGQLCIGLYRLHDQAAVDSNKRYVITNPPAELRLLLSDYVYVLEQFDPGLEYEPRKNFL
# UniProt A0A2K6W0E9, entry or part of it: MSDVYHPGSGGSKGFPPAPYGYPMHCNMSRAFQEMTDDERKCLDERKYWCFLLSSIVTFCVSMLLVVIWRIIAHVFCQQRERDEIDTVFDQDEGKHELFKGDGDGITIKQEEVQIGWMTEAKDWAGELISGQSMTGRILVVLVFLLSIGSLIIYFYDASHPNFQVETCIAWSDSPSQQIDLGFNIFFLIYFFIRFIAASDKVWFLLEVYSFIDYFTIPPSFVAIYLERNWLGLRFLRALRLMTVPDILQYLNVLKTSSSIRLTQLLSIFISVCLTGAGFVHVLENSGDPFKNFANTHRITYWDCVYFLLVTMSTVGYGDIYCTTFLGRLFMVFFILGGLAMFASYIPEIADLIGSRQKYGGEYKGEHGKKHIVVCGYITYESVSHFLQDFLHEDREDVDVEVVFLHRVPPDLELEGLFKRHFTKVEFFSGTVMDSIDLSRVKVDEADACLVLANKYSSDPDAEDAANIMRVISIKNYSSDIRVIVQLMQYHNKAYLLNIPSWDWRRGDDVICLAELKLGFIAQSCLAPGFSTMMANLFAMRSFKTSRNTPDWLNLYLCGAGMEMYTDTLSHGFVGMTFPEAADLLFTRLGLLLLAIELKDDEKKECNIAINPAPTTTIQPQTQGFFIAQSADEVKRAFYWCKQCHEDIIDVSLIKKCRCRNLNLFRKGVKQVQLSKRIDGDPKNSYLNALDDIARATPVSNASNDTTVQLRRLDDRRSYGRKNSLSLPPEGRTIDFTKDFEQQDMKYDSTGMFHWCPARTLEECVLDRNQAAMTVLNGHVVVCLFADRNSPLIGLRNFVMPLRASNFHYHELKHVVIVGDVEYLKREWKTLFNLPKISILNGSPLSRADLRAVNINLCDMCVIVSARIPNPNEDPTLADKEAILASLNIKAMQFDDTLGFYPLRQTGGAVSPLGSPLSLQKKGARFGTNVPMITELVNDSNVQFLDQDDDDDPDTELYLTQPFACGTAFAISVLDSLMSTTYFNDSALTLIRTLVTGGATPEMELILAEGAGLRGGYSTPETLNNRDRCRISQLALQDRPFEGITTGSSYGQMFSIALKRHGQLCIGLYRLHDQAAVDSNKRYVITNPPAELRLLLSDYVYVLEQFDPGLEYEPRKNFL
# Like-named read-outs stand apart in the source and are kept apart here.
# What was measured:
# [1] = Solubility limit in oocyte recording solution; format: physicochemical; details: DMSO not exceeding 0.1%
# Protocol: Emodepside is known to be lipophilic, thus making it difficult to wash off completely from the Xenopus laevis oocyte preparation after application. […] To estimate EC50 values, we utilized a cumulative concentration-response protocol (no wash steps between drug application) and a maximum concentration of 10 µM emodepside. For our recordings, the times for drug applications were selected to allow the currents recorded to reach a stable plateau. At the beginning of experiments the Xenopus oocytes were perfused with drug free recording solution for 1 min, to obtain stable initial resting currents. For our drug applications we used successive applications of increasing concentrations of emodepside (0.1 – 10 µM) for 5 mins per concentration. Washing of the Xenopus oocytes then followed for 3 mins.
# Bma-SLO-1F = Bma-SLO-1F (Brugia malayi, UniProt A0A0J9Y9H3); assay: Two-electrode voltage clamp of Xenopus oocytes expressing Bma-SLO-1F; format: cell-based; details: read-out: EC50 of emodepside; emodepside alone, cumulative 0.1-10 µM, 5 min per concentration, holding potential +20 mV, n = 10
# Protocol: (§1) Defolliculated Xenopus laevis oocytes were purchased from Ecocyte Bioscience (Austin, TX, USA) and Xenopus 1 Corp (Dexter, MI, USA). Heterologous expression of the Bma-SLO-1F receptor was achieved by injecting 15 ng of cRNA in a total volume of 50 nL in nuclease-free water. Each oocyte was microinjected into the cytoplasm of the animal pole region using a Drummond Nanoject II microinjector (Drummond Scientific, Broomall, PA, USA). After injection, oocytes were incubated at 17°C in a sterile 96-well culture plate containing 300 μl of incubation solution (100 mM NaCl, 2 mM KCl, 1.8 mM CaCl2.2H2O, 1 mM MgCl2.6H2O, 5 mM HEPES, 2.5 mM Na pyruvate, 100 U/mL penicillin and 100 μg/mL streptomycin, pH 7.5) in each well. Incubation solution was changed daily during the period of incubation. The same procedure was also conducted for the Ovo-SLO-1A receptor. Experiments were performed on oocytes within 5 – 6 days post injection. […]
# (§2) Emodepside is known to be lipophilic, thus making it difficult to wash off completely from the Xenopus laevis oocyte preparation after application. […] For our recordings, the times for drug applications were selected to allow the currents recorded to reach a stable plateau. […]
# Ovo-SLO-1A = Ovo-SLO-1A (Onchocerca volvulus, UniProt A0A2K6W0E9); assay: Two-electrode voltage clamp of Xenopus oocytes expressing Ovo-SLO-1A; format: cell-based; details: read-out: EC50 of emodepside
# Protocol: as §1, §2
substance,measurement,setting,value
emodepside,concentration above which precipitation and a limit of solubility were seen,[1],exceeding 10 µM
same,EC50,Bma-SLO-1F,1400 ± 200 nM
same,EC50,"Ovo-SLO-1A; control, absence of GoSlo-SR-5-69, modulation experiment, n = 6",500 ± 90 nM
same,EC50,"Ovo-SLO-1A; emodepside alone, cumulative 0.1-10 µM, 5 min per concentration, holding potential +20 mV, n = 10",400 ± 50 nM
